Reference: PubChem BioAssay AID2797 (The Scripps Research Institute Molecular Screening Center, 2010)
The entries are a selection whose mix differs from that of the whole data set. Some salts and complexes are drawn in separate pieces, as the source files them; their charges need not balance. The source made the active and inactive calls.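 Rule for the calls: active = activation above the mean activation of all tested compounds plus 3 SD, per screening run (cut at about 20% in these data); inactive = the rest.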

Chains of the proteins cited; added tags and fusions are not shown.
UniProt P37288, whole entry: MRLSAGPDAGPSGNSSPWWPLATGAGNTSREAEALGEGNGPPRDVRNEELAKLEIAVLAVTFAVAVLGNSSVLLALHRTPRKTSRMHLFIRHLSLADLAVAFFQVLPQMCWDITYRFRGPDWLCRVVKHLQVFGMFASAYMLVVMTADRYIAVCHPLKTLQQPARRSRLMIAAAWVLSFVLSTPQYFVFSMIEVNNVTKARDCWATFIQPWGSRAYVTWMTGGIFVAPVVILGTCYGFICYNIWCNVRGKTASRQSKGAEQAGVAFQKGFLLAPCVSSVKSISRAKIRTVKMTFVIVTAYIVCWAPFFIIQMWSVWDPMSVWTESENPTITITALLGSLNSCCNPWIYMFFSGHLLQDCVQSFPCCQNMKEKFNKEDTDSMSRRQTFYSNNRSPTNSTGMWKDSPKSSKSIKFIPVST

molecular target: Vasopressin V1a receptor (Homo sapiens) (UniProt P37288); experiment: V1R activation via calcium rise – fluorescence, CHO-V1R cells, counter-screen for OXTR agonist project, primary screen (AID 2797); settings: Fluo-8 calcium fluorescence, agonist mode, at 3 µM, stronger effect = higher value, 0% DMSO, 100% 3 nM vasopressin;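 note: signal is peak over basal fluorescence ratio across a 100 second FLIPR read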

Compound | activation
Cc1ccccc1NP(C)(=O)Nc1ccccc1C | inactive: 0.82%
CP(=O)(Nc1ccc2c(c1)OCCO2)Oc1ccccc1 (stereo unspecified) | inactive: 1.37%
CCOP(C)(=S)SCC(=O)NC(C)(CC)C(=O)O (stereo unspecified) | inactive: 0.06%
CP(=O)(Nc1ccc(SC(F)(F)F)cc1)Oc1ccc(F)cc1 (stereo unspecified) | inactive: 1.48%
O=[N+]([O-])c1cc([N+](=O)[O-])c(NCC2CCS(=O)(=O)C2)c([N+](=O)[O-])c1 (stereo unspecified) | inactive: 0.47%
COc1ccc(NP(C)(=O)Oc2ccccc2OC)cc1 (stereo unspecified) | inactive: -0.01%
CN(C)CCOC(=O)C(O)(c1ccccc1)C1CCCCC1 (stereo unspecified) | inactive: 1.16%
COc1ccc(OP(C)(=O)Nc2cccc(Br)c2)cc1 (stereo unspecified) | inactive: 2.09%
CCCCCOc1ccc(NP(C)(=O)Oc2ccc(Cl)cc2Cl)cc1 (stereo unspecified) | inactive: -0.2%
O=[N+]([O-])c1cc([N+](=O)[O-])c(OC2CCCCC2O)c([N+](=O)[O-])c1 (stereo unspecified) | inactive: -0.49%
CP(=O)(Nc1ccccc1)Oc1ccc(F)cc1 (stereo unspecified) | inactive: -0.2%
CCN(CC)CCCOC(=O)C(O)(c1ccccc1)C1CCCCC1 (stereo unspecified) | inactive: 1.13%
COc1ccc(OP(C)(=O)Nc2ccc(SC(F)(F)F)cc2)cc1 (stereo unspecified) | inactive: 0.48%
CCOC(=O)c1ccc(NP(C)(=O)Oc2ccc(F)cc2)cc1 (stereo unspecified) | inactive: 2.57%
COc1ccc2c(c1O)-c1c(O)c(OC)cc3c1[C@H](C2)[N+](C)(C)CC3.O=[N+]([O-])c1cc([N+](=O)[O-])c([O-])c([N+](=O)[O-])c1[O-] | inactive: 0.68%
O=C(OCCN1CCN(CCOCc2ccccc2)CC1)C(O)(c1ccccc1)c1ccccc1 | inactive: 2.98%
O=C(OC1CN2CCC1CC2)c1ccc([N+](=O)[O-])cc1 (stereo unspecified) | inactive: 0.79%
CC(C)c1ccc(OP(C)(=O)Nc2ccc(SC(F)(F)F)cc2)cc1 (stereo unspecified) | inactive: -0.08%
CP(=O)(Nc1ccccc1F)Oc1ccccc1 (stereo unspecified) | inactive: -0.01%
Cc1cc(C)cc(OP(C)(=O)Nc2ccccn2)c1 (stereo unspecified) | inactive: -1.06%
CP(=O)(Nc1cccc(Br)c1)Oc1ccccc1 (stereo unspecified) | inactive: 0.17%
Cc1ccc(C)c(NP(C)(=O)Oc2ccccc2)c1 (stereo unspecified) | inactive: 1.04%
Cc1cc(C)cc(OP(C)(=O)Nc2ccc(C)cc2C)c1 (stereo unspecified) | inactive: 0.66%
CCOC(=O)c1ccc(NP(C)(=O)Oc2cc(C)cc(C)c2)cc1 (stereo unspecified) | inactive: 3.39%
COc1ccccc1OP(C)(=O)Nc1cccc(Br)c1 (stereo unspecified) | inactive: -0.66%
CC1=NCCc2c1[nH]c1ccccc21.O=[N+]([O-])c1cc([N+](=O)[O-])c(O)c([N+](=O)[O-])c1 | inactive: -0.79%
